Experimental data reported in PubChem BioAssay AID1885 (Broad Institute, 2009).
This is a selection; strong and weak results do not stand in their true shares. Activity calls are given as the source filed them.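 How the source made its calls: active means mean inhibition across valid replicates above about 55% (limit read from the data); inconclusive means mean below that limit but half or more replicates reach it; inactive means mean below it, under half of replicates reach it.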

Assay: Trypanosoma cruzi replication blockers in host cells – luminescence, NIH3T3 host cells, primary screen (AID 1885);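 further: signal also drops with host cell toxicity which is not excluded here; 0% = plate median of DMSO wells and 100% = zero luminescence signal; higher percent means less beta-gal luminescence so fewer parasites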
Details: T. cruzi beta-gal in NIH3T3, luminescence, 90 h; active compounds read high; concentration not given here
Procedure, shortened: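 Incubation – ≥90 h infection period, 3 h prior cell attachment · System – NIH/3T3 fibroblasts plus reporter T. cruzi · Doses – compound pinned at 50 nL/well, DMSO · Read-out basis – percent inhibition of parasite-derived β-gal signal · Signal – luminescent β-galactosidase signal after 60 min lysis · Also added – 5000 T. cruzi trypomastigotes/well · Medium – Low-serum DMEM with 2% FBS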

SMILES | inhibition
Cc1ccc(NCCc2c([N+](=O)[O-])cc([N+](=O)[O-])cc2[N+](=O)[O-])cc1 | active: 56.4%
CCC1=CC2Cc3nc4ccc(Cl)cc4c(N)c3C(C1)C2 (configuration not stated) | active: 60%
CCC(C)N(CC(C)C)C(=S)SC(NC(C)=O)C(Cl)(Cl)Cl (configuration not stated) | active: 77.6%
O=[N+]([O-])c1cc([N+](=O)[O-])c(-c2ccn[nH]2)s1 | active: 63.7%
CCN(CC)C(=S)SC(NC=O)C(Cl)(Cl)Cl (configuration not stated) | active: 65.6%
O=[N+]([O-])c1cc([N+](=O)[O-])c(CCNc2ccccc2)c([N+](=O)[O-])c1 | active: 73.6%
Cc1ccc(OP(=O)(Nc2ccccn2)Oc2ccc(C)cc2)cc1 | active: 82.7%
